In the experiment the target is T1, wild-type RET kinase domain (Homo sapiens, UniProt P07949).
T1 construct: determined against recombinant-human, wild-type RET kinase domain; phage display fusion (kinase expressed on phage); purchased DiscoverX (Fremont, CA); host or cells: phage
T1 sequence (P07949 724-1016 limits assumed): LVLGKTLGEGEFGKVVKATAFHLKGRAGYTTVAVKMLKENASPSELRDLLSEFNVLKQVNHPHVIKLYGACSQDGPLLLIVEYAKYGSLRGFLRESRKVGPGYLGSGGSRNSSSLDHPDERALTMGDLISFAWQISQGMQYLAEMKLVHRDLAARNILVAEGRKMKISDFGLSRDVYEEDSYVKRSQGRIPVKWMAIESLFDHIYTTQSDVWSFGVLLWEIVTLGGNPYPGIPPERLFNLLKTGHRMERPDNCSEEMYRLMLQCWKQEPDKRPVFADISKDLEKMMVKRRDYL
Kind of experiment: Wild-type RET Kd, bead based competition assay (KINOMEscan, DiscoverX). The class given is binding. The note with it: recombinant human wild-type RET kinase domain, average of two replicates; read-out: Kd towards wild-type RET. How it is done:
Wild-type RET Kd values were determined by DiscoverX (Fremont, CA) using a bead based competition assay (KINOMEscan). In brief, kinases are expressed on phage and immobilized on beads via active site-directed ligands. Test compounds are premixed with kinases and assayed for the ability to compete for immobilized ligands. Binding constants are calculated with a standard dose-response curve and the Hill equation, with Hill slope set to −1. […] Kd values are the average of two experimental replicates.
To assess if the differences in activity between R^F- and R^H-analogs were related to alterations in target engagement, representative analogs for binding on wild-type RET were compared. For this KD values of compounds 40 (para-C2F5) and 50 (para-C2H5) were determined against recombinant-human, wild-type RET kinase domain. Assays were completed using the bead-based competition format developed by Ambit/DiscoverX and binding curves were plotted relative to regorafenib (2; FIG. 8A).

A word on the Kd: it is a measure of binding affinity in units of concentration. Regarding `CNC(=O)c1cc(Oc2ccc(NC(=O)Nc3ccc(Cl)c(C(F)(F)F)c3)c(F)c2)ccn1` [regorafenib, reference compound], the Kd was 6.4 nM.

The record behind these values is patent US20240287081A1, “PERFLUOROALKANE SUBSTITUTED PYRAZOLO[3,4-D]PYRIMIDIN AND PYRROLO[2,3-D]PYRIMIDIN COMPOUNDS AND USES THEREOF” (ICAHN SCHOOL OF MEDICINE AT MOUNT SINAI, priority 2021, published 2024).
